Results as given in patent US9782415B2, “Substituted pyrazolo[1,5-a]pyrimidine compounds as Trk kinase inhibitors” (Array BioPharma, Inc., priority 2009, dated 2017).

Sequences of proteins named here, by UniProt entry; tags and fusion partners are left off. Residues count along the entry.
UniProt P04629, 440-796: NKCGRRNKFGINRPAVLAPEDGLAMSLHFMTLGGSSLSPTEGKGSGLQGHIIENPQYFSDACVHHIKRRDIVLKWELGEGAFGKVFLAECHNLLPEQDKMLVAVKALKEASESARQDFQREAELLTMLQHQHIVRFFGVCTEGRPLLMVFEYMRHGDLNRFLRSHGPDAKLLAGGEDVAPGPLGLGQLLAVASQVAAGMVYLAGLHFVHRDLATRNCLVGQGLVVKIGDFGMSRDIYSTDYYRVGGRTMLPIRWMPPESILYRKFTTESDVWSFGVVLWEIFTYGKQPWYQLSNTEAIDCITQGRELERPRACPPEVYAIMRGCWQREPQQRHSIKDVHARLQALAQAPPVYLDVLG

Biological target: histidine-tagged recombinant human TrkA, cytoplasmic domain (Homo sapiens (Human), UniProt P04629)
Assay: TrkA ELISA Assay
Type: biochemical
Conditions: Table 1, 500 μM ATP, read-out: TrkA Enzyme IC50
Description: An enzyme-linked immunosorbant assay (ELISA) was used to assess TrkA kinase activity in the presence of inhibitors. […] The assay buffer consisted of 25 mM MOPS pH 7.5, 0.005% (v/v) Triton X-100 and 5 mM MgCl2. The reaction mixture was removed from the plate by washing with PBS containing 0.1% (v/v) Tween 20. […] After the addition of 1M phosphoric acid, the chromogenic substrate color intensity was quantitated via absorbance at 450 nm.

- IC50: 1.18 nM
Structure (SMILES): CC1(O)CCC(NC(=O)c2cnn3ccc(N4CCC[C@@H]4c4cc(F)ccc4F)nc23)CC1 (stereo partly drawn) [Example 51, 5-((R)-2-(2,5-difluorophenyl)pyrrolidin-1-yl)-N-(4-hydroxy-4-methylcyclohexyl)pyrazolo[1,5-a]pyrimidine-3-carboxamide (Diasteromer 2)]
